From article PMC6349905 (Cell Death Discovery, 2019)

Amino acid sequences for entries named in this document (tags omitted).
UniProt Q60492, whole entry: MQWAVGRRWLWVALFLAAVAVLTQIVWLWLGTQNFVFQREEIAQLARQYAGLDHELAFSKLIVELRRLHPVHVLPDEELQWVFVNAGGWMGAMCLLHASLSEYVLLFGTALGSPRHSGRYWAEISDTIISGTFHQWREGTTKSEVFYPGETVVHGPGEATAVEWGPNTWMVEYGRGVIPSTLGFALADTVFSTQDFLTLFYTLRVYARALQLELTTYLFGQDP

Target: T1, sigma-1 receptors (Cavia porcellus, UniProt Q60492)
T1 construct: 100 μg guinea pig brain membrane homogenates; from tissue; host or cells: guinea pig brain membrane homogenates
Test: Saturation binding of [3H](+)-pentazocine on guinea pig brain membranes

Structure (SMILES): CC(C)=CCN1CC[C@]2(C)c3cc(O)ccc3C[C@H]1[C@H]2C [[^3H](+)-pentazocine]
- Bmax of [3H](+)-pentazocine: 1242.0 ± 77.9 fmol/mg
